# Measurements: patent publication US9260534B2, “Site-directed PEG-modified exendin-4 analogs and uses thereof” (priority 2010, dated 2016)
# pEC50: −log10 of the molar value.
# System: GLP-1 receptor
# Experiment: Evaluation of agonistic activity on GLP-1 receptor (CRE-luciferase reporter in HEK293 cells)
# Format: cell-based
# Conditions: HEK293 cells stably expressing CRE-luciferase reporter system; cellular level
# Text: GLP-1 receptor is a Gs-coupled GPCR. CRE-luciferase reporter system was stably expressed in human embryonic kidney epithelial cell line HEK293 used for evaluation. Therefore, once the receptor was activated, the enhancement of intracellular concentration of the second messenger cAMP through Gs signal pathway would initiate the expression of the luciferase gene in the reporter system. The ability of the test compounds to stimulate and activate GLP-1 receptor was reflected by the detected expression level of the luciferase reporter gene.
substance,measurement,value
[Cys^37(mPEG5000-MAL)]Exendin-4 [Compound 6],pEC50,8.75
